From the supplement of paper PMC11403291

The chains behind the UniProt entries cited, without tags or fusion partners. Where a name states a change or a piece, a line headed by the entry shows the natural chain unless it says otherwise.
UniProt Q8NI60: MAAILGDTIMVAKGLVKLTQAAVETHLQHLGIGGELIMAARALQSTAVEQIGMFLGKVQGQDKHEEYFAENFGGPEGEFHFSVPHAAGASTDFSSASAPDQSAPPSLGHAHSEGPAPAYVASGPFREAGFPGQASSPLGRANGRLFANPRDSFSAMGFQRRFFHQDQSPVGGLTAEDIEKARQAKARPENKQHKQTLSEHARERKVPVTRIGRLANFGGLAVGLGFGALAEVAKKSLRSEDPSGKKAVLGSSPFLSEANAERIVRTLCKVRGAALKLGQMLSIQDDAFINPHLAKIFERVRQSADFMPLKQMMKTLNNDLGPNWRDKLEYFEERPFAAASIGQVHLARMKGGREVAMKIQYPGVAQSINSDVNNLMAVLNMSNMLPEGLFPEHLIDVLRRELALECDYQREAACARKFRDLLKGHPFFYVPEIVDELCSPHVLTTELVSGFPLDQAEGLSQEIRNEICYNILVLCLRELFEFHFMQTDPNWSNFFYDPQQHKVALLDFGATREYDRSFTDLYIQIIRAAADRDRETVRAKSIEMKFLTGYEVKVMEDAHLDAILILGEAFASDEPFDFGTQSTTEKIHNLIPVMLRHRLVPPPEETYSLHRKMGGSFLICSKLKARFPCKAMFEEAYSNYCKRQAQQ
UniProt O14965: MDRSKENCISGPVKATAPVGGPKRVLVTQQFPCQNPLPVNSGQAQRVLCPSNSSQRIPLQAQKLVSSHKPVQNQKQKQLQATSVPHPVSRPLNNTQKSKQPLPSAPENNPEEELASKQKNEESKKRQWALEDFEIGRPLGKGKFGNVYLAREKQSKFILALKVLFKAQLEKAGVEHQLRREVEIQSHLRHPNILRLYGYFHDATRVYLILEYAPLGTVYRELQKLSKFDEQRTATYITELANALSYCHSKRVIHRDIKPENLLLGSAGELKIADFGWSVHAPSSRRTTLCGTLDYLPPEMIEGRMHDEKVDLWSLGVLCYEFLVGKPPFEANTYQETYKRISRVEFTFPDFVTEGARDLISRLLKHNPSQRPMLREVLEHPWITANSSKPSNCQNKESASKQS
UniProt P30837: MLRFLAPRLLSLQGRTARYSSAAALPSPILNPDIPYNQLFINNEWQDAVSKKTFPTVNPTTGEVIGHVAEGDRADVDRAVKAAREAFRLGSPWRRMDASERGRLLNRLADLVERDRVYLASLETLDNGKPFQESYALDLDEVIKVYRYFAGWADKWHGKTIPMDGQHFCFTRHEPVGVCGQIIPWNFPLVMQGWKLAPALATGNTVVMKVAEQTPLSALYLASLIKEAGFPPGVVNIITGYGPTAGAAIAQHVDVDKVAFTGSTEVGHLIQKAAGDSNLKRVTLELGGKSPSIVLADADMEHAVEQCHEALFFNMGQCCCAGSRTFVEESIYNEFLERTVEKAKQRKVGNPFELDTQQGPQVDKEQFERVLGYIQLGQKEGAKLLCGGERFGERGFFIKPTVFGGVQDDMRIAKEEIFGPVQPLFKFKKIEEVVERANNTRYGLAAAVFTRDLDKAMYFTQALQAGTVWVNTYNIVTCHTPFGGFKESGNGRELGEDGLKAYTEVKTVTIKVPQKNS
UniProt O00238: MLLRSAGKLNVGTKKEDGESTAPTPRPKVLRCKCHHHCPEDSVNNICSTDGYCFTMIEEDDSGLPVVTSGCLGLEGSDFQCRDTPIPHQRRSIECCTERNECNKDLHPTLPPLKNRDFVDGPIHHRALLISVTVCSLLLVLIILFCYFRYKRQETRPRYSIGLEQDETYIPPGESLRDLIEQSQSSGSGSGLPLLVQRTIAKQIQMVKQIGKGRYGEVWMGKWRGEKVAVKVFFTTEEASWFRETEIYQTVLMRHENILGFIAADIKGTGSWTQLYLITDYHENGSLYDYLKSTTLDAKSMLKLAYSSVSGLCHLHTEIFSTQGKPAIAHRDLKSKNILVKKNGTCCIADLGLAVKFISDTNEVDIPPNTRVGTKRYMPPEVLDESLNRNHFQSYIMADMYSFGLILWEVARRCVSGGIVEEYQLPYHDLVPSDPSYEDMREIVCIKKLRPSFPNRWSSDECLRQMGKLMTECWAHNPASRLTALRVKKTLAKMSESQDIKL
UniProt Q8N5Y8: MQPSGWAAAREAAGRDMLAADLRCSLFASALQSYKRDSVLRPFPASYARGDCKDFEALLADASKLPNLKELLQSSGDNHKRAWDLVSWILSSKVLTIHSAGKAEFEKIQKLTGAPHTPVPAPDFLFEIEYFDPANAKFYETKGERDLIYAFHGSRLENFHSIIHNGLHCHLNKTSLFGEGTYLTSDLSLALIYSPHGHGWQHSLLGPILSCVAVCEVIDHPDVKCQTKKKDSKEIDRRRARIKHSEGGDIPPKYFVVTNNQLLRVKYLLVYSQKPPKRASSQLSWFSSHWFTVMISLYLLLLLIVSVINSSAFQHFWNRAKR
UniProt O95271: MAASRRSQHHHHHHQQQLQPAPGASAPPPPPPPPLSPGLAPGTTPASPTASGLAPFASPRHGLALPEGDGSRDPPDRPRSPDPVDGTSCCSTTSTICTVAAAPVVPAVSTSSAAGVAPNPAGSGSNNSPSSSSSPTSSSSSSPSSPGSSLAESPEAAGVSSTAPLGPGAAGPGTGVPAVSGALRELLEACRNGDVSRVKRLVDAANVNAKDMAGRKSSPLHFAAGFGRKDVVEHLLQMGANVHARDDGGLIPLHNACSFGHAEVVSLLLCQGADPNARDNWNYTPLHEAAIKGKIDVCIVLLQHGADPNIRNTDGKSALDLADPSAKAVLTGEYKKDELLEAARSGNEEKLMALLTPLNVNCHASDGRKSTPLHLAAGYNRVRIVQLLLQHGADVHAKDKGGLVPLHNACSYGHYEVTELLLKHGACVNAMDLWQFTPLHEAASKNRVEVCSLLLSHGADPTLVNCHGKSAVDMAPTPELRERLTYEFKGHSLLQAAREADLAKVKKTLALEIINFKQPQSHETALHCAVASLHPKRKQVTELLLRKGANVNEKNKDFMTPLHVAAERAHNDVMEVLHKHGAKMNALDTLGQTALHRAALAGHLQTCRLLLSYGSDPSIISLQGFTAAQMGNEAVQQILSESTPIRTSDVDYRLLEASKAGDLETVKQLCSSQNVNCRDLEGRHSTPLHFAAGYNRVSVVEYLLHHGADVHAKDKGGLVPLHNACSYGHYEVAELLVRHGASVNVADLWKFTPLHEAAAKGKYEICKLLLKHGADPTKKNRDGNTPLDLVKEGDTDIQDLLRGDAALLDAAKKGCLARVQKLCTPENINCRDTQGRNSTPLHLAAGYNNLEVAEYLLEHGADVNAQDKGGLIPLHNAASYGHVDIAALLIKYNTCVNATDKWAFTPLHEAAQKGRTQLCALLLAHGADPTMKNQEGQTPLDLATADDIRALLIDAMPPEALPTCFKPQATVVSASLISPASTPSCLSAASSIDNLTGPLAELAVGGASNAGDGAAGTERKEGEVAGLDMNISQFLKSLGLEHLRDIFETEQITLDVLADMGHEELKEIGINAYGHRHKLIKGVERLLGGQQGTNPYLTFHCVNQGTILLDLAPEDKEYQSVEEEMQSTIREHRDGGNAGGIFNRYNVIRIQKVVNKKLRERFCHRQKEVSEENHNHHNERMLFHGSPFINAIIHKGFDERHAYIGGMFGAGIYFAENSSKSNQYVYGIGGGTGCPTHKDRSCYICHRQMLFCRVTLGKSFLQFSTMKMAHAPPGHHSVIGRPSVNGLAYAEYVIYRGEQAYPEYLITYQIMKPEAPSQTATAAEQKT
UniProt Q9NR21: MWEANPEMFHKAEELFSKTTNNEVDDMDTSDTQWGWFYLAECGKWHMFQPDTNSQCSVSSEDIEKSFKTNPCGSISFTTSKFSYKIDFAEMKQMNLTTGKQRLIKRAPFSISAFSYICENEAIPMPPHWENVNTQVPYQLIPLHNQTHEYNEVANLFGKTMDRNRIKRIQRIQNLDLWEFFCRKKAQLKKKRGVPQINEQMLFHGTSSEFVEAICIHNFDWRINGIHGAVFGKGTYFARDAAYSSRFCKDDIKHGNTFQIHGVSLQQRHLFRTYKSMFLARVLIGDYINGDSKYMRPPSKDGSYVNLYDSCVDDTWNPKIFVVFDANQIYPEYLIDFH
UniProt Q53GL7: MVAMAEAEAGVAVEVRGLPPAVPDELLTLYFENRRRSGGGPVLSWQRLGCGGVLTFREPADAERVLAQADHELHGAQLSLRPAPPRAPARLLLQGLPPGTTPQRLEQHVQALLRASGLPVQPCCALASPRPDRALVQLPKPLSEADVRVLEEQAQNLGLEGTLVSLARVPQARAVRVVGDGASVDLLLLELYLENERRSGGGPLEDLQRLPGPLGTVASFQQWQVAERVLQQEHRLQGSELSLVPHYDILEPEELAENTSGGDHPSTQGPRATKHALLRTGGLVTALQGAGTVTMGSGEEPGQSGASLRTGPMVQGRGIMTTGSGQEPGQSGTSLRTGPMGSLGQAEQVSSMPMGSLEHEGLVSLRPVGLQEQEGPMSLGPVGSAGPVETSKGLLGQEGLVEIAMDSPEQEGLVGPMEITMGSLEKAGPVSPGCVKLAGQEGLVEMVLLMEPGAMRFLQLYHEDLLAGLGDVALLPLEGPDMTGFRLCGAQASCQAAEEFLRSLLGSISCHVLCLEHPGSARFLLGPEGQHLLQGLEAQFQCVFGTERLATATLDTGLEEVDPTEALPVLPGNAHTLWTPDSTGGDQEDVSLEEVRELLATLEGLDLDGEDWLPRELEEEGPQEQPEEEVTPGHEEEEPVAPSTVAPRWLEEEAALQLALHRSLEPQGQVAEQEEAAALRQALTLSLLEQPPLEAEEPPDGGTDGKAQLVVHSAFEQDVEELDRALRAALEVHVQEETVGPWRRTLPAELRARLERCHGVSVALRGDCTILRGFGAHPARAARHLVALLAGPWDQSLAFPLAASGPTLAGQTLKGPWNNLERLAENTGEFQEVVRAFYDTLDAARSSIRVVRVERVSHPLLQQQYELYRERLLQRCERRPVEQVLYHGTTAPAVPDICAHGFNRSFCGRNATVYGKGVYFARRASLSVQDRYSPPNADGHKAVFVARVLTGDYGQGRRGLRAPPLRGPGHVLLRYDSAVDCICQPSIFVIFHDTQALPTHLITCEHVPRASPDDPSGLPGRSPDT
UniProt O00764: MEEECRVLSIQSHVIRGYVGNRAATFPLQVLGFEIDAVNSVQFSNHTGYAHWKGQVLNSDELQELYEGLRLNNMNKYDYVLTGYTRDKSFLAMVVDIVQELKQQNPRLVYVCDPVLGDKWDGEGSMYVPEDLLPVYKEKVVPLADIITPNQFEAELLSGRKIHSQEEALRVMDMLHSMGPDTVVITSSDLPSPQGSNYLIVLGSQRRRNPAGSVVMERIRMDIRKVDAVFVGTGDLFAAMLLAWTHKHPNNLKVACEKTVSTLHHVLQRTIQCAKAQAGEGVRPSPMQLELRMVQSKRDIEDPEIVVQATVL
UniProt O75521: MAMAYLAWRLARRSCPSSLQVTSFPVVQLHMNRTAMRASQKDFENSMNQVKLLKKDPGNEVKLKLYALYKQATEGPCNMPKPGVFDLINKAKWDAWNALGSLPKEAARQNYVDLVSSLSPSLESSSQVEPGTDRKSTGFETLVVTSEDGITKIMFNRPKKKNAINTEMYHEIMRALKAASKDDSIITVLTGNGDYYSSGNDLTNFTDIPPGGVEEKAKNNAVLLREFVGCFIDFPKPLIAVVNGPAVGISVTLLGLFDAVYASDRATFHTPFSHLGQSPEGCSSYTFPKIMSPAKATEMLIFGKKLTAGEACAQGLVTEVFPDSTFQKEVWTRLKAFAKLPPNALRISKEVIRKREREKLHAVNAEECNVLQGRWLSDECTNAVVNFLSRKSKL

Columns and labels:
UniProt Q8NI60 = test: IC50 of competition for binding to PARP-centric bead matrix; settings: affinity matrix: PARP family-centric bead mix; lysate: MDA-MB-231
UniProt O14965 = test: as above; settings: affinity matrix: PARP family-centric bead mix; lysate: MDA-MB-231
ALDH1B1 [1] = target: ALDH1B1 (UniProt P30837); test: as above; settings: affinity matrix: PARP family-centric bead mix; lysate: MDA-MB-231
JAK1 = JAK1 (UniProt P23458); test: as above; settings: affinity matrix: PARP family-centric bead mix; lysate: MDA-MB-231
BMPR1B = BMPR1B (UniProt O00238); test: apparent dissociation constant pKd app (kinobead competition) (-log10(M)); higher = stronger binding
PARP16 = PARP16 (UniProt Q8N5Y8); test: IC50 of competition for binding to PARP-centric bead matrix; settings: affinity matrix: PARP family-centric bead mix; lysate: MDA-MB-231
TNKS [2] = target: TNKS (UniProt O95271); test: as above; settings: affinity matrix: PARP family-centric bead mix; lysate: MDA-MB-231
UniProt Q9NR21 [3] = test: as above; settings: affinity matrix: PARP family-centric bead mix; lysate: MDA-MB-231
PARP10 = PARP10 (UniProt Q53GL7); test: as above; settings: affinity matrix: PARP family-centric bead mix; lysate: MDA-MB-231
PARP14 = PARP14 (UniProt Q460N5); test: as above; settings: affinity matrix: PARP family-centric bead mix; lysate: MDA-MB-231
PDXK = PDXK (UniProt O00764); test: as above; settings: affinity matrix: PARP family-centric bead mix; lysate: MDA-MB-231
PARP4 = PARP4 (UniProt Q9UKK3); test: as above; settings: affinity matrix: PARP family-centric bead mix; lysate: MDA-MB-231
TNKS [4] = target: TNKS (UniProt O95271); test: IC50 of competition for binding to immobilized-niraparib matrix; settings: affinity matrix: immobilized niraparib (NHS-Sepharose); lysate: 1:1:1:1 mix of HEK293, K-562, placenta, HepG2 Princen
UniProt Q9NR21 [5] = test: as above; settings: affinity matrix: immobilized niraparib (NHS-Sepharose); lysate: 1:1:1:1 mix of HEK293, K-562, placenta, HepG2 Princen
UniProt O75521 = test: as above; settings: affinity matrix: immobilized niraparib (NHS-Sepharose); lysate: 1:1:1:1 mix of HEK293, K-562, placenta, HepG2 Princen
ALDH1B1 [6] = target: ALDH1B1 (UniProt P30837); test: as above; settings: affinity matrix: immobilized niraparib (NHS-Sepharose); lysate: 1:1:1:1 mix of HEK293, K-562, placenta, HepG2 Princen
ALDH2 = target: T1, ALDH2 (UniProt P05091); test: as above; settings: affinity matrix: immobilized niraparib (NHS-Sepharose); lysate: 1:1:1:1 mix of HEK293, K-562, placenta, HepG2 Princen
T1 sequence (whole entry): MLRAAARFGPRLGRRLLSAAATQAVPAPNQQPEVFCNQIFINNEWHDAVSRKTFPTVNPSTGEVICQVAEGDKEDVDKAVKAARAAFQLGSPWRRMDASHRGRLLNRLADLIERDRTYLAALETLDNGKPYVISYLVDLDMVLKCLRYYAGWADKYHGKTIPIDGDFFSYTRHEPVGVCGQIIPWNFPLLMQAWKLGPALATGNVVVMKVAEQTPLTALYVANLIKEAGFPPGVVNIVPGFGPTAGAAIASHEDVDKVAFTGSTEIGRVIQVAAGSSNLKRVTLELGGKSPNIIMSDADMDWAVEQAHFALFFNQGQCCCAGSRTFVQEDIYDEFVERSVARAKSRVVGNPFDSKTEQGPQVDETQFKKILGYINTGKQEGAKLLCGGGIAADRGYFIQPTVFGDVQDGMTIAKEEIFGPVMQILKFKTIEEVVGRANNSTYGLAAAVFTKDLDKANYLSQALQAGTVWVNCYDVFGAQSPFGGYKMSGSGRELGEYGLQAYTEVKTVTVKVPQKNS

UniProt Q9H2K2 = test: as above; settings: affinity matrix: immobilized niraparib (NHS-Sepharose); lysate: 1:1:1:1 mix of HEK293, K-562, placenta, HepG2 Princen

IC50 (UniProt Q8NI60): > 30 µM | IC50 (UniProt O14965): > 30 µM | IC50 (ALDH1B1 [1]): > 30 µM | IC50 (JAK1): > 30 µM | apparent dissociation constant pKd app (-log10) (BMPR1B): < 4.7
Structure (SMILES): O=C(c1cc(Cc2n[nH]c(=O)c3ccccc23)ccc1F)N1CCN(C(=O)C2CC2)CC1 [Olaparib]

IC50 (PARP16): > 30 µM | IC50 (TNKS [2]): > 30 µM | IC50 (UniProt Q9NR21 [3]): > 30 µM | IC50 (PARP10): 10 µM | IC50 (PARP14): > 30 µM | IC50 (PDXK): 11 µM | IC50 (PARP4): 0.384 µM | IC50 (TNKS [4]): 8.5 µM | IC50 (UniProt Q9NR21 [5]): > 30 µM | IC50 (UniProt O75521): 3.6 µM | IC50 (ALDH1B1 [6]): 1 µM | IC50 (ALDH2): 6.18 µM
Structure (SMILES): NC(=O)c1cccc2cn(-c3ccc([C@@H]4CCCNC4)cc3)nc12 [Niraparib]

IC50 (UniProt Q9H2K2): 0.18 µM
Structure (SMILES): Cn1ncnc1[C@H]1c2n[nH]c(=O)c3cc(F)cc(c23)N[C@@H]1c1ccc(F)cc1 [Talazoparib]

Each block holds one molecule with its values, some of them ahead of it.
